Results from ChEMBL document CHEMBL2321814, “Sulfocoumarins (1,2-benzoxathiine-2,2-dioxides): a class of potent and isoform-selective inhibitors of tumor-associated carbonic anhydrases” (J Med Chem, 2013).
pKi: −log10 of the molar value.

Columns and labels:
Carbonic anhydrase 12 = Carbonic anhydrase 12 (Homo sapiens, UniProt O43570); assay: Inhibition of human recombinant transmembrane CA12 catalytic domain after 6 hrs by stopped-flow CO2 hydration method
Carbonic anhydrase 9 = Carbonic anhydrase 9 (Homo sapiens, UniProt Q16790)

pKi (Carbonic anhydrase 12): < 4.00
pKi (Carbonic anhydrase 9): < 4.00
SMILES: O=c1ccc2ccccc2o1 [COUMARIN]
